Structures can show the parent of a compound that is named as a salt. The entries are a selection whose mix differs from that of the whole data set.

For the assay, the system named is primary human hepatic stellate cells (donor 1). In words: ACTA2 mRNA fold change vs DMSO (normalised to PSMB2); higher = more ACTA2 expression. The settings on record: 33.3333 µM; 48 h. Here is the method: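 Secondary qRT-PCR screen in primary human HSCs (donor 1), 384-well plates, with compounds dispensed in quadruplicate and incubated for 48 h. Cells-to-CT lysates were used for multiplexed TaqMan qPCR of ACTA2 or COL1A1 with PSMB2 as reference. Fold changes versus DMSO come from a linear model (Ct_gene ~ Ct_PSMB2 + plate + chemical). A hit is defined as COL1A1 and ACTA2 FC <0.5 (FDR <0.05) with PSMB2 between 0.2 and 2.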
Take `N/C(=N/CCc1ccc(I)cc1)SCCCc1cnc[nH]1` [Iodophenpropit dihydrobromide]: the “ACTA2 mRNA fold change” value was found to be 0.0708.

The values are drawn from the supplement of paper PMC9135407.
